The values below come from US8937189B2 (dated 2015).

The assay deals with rat NET. The experiment in a line: Inhibition of [3H]nisoxetine binding to NET.

In the case of `Oc1ccc(CN[C@H]2CC[C@@H](C(c3ccccc3)c3ccccc3)OC2)cc1` (relative stereo) [Compound 16h, Cis-(6-benzhydryl-tetrahydropyran-3-yl)-(4-hydroxy-benzyl)-amine], the “NET binding/DAT binding” value is reported as 0.29.
For `Nc1ccc(CN[C@H]2CC[C@@H](C(c3ccccc3)c3ccccc3)OC2)cc1` (relative stereo) [Compound 16o, Cis-(6-benzhydryl-tetrahydropyran-3-yl)-(4-amino-benzyl)-amine] the value was 0.81.
